Where two headings read alike, the source gives them in different places.
Key:
[1] = target: IgG (clone AMY-33)-A-beta fibril interaction (Homo sapiens, UniProt P05067); assay: ELISA-based inhibition of anti-A-beta IgG (clone AMY-33) binding to A-beta fibrils; conditions: same conditions as clone 6E10 assay
[2] = target: binding of the anti-A-beta IgG (clone 6E10) to the A-beta fibrils (Homo sapiens, UniProt P05067); assay: ELISA-based inhibition of anti-A-beta IgG (clone 6E10) binding to ThT-coated A-beta fibrils

The chains behind the UniProt entries cited, without tags or fusion partners. Residues count along the entry.
UniProt P05067, 672-713 limits assumed: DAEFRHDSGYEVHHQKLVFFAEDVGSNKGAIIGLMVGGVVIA

Q: For `Cc1ccc2c(c1)sc(-c1ccc(N(C)C)cc1)[n+]2C.[Cl-]` [ThT, Thioflavin T], which IC50 [1] is on record?
A: Its IC50 is 0.4 µM.

Q: What about the IC50 ([2]; read-out: IC50, 0.3 μM solution of A-beta peptide in the control procedure, 0.3 μM A-beta peptide, preincubation control procedure, data not shown) of the same molecule?
A: Its IC50 is ~1 µM.

Q: And the IC50 ([2]; read-out: IC50, fibrils incubated with ThT prior to depositing into the wells, A-beta fibrils 1.3 μM preincubated with ThT, clone 6E10)?
A: Its IC50 is 60 µM.

Q: And the IC50 ([2]; read-out: IC50 for the binding of the anti-A-beta IgG to the A-beta fibrils, clone 6E10, 0.16 μg mL−1, fibrils deposited from solutions containing 1.3 μM A-beta peptide, then incubated with ThT)?
A: The IC50 was 5 µM.
